# Assays:
# Type in all cases: organism-based
# Settings in all cases: in vivo
# [1] = Therapeutic index, ratio of PD50 for acute toxicity in po dosed mouse assessed as concentration required to produce 50% loss of righting reflex to MED25 for muscle relaxant activity in po dosed mouse assessed as increase in strychnine-induced persistant convulsive threshold
# [2] = Therapeutic index, ratio of PD50 for acute toxicity in po dosed mouse assessed as concentration required to produce 50% loss of righting reflex to MED20 for anticonvulsant activity in po dosed mouse assessed as blockade of supramaximal electroshock-induced […] seizure
# [3] = Therapeutic index, ratio of PD50 for acute toxicity in po dosed mouse assessed as concentration required to produce 50% loss of righting reflex to MED causing antianxiety activity in ip dosed rat assessed as effect on increase in punished responses
# [4] = system: Mus musculus; test: Ratio of LD50 for po dosed mouse to PD50 for acute toxicity in po dosed mouse assessed as concentration required to produce 50% loss of righting reflex
# [5] = Therapeutic index, ratio of PD50 for acute toxicity in po dosed mouse assessed as concentration required to produce 50% loss of righting reflex to MED20 for muscle relaxant activity in po dosed mouse assessed as blockade of pentylenetetrazol-induced tonic extensor seizure
compound,measurement,setting,value
CN1C(=O)CN=C(c2ccccc2)c2cc(Cl)ccc21 [DIAZEPAM],TI,[1],2900
same,TI,[2],36
same,TI,[3],485
same,Ratio,[4],1.1
same,TI,[5],485
